Reference: ChEMBL document CHEMBL1131670, “N-hydroxyurea and hydroxamic acid inhibitors of cyclooxygenase and 5-lipoxygenase” (Bioorg Med Chem Lett, 1999)

Biological target: T1, Cyclooxygenase (Rattus norvegicus, UniProt P35355+Q63921)
T1 sequence (P35355 whole entry): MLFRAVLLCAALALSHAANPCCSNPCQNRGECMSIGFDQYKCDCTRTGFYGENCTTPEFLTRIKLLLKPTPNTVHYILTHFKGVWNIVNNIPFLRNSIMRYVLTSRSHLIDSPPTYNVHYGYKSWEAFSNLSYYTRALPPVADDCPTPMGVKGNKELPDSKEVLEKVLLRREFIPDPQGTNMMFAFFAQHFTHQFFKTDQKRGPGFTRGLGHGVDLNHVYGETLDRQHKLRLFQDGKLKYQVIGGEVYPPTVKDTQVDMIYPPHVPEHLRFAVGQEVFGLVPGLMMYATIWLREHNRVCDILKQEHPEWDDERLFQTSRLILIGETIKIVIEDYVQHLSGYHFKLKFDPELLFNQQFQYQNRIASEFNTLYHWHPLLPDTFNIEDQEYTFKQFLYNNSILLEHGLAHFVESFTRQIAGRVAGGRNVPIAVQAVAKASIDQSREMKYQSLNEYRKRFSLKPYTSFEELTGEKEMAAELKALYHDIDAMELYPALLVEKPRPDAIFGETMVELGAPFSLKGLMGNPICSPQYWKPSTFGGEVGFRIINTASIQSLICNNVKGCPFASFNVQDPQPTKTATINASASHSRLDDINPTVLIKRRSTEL
T1 sequence (Q63921 whole entry): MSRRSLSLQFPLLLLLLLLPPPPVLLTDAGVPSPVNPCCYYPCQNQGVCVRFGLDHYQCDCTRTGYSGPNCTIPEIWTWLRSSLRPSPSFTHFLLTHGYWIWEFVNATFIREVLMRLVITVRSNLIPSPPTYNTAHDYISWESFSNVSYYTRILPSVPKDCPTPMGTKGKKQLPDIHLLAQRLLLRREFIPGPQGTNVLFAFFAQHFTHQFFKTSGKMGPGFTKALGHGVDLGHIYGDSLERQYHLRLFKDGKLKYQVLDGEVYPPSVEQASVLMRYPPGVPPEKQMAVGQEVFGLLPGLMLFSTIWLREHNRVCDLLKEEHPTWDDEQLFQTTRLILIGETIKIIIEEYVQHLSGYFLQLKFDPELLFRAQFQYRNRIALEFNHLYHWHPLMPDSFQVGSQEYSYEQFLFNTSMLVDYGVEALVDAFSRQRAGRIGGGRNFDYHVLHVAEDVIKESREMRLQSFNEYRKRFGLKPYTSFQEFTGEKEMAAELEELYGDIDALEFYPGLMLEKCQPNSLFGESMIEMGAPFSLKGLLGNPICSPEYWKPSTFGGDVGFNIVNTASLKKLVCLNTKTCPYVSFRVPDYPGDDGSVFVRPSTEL
Test: Inhibitory activity against cyclooxygenase (COX) in intact rat […] leukemia cells (RBL-1)
Format: cell-based

SMILES	IC50
COc1ccc(-n2nc(C#CC(C)N(O)C(=O)N3CCCCC3)cc2-c2ccc(Cl)cc2)cc1 (configuration not stated)	690 nM
COc1ccc(-n2nc(C#CCN(O)C(=O)c3ccccc3)cc2-c2ccc(C)cc2)cc1	930 nM
